# scFv variants of Ab-14 (light chain) against a SARS-CoV-2 spike peptide

Data: MIT Lincoln Laboratory AlphaSeq set, Li et al. 2023, doi:10.1038/s41467-023-39022-2, as distributed in FLAb.

Target: peptide PDVDLGDISGINAS, taken from heptad repeat 2 (HR2) of SARS-CoV-2 spike.

The variants keep the heavy chain, the linker and the frameworks of Ab-14 (scFv order VH, a 15-residue (Gly4Ser)3 linker, VL).
VH: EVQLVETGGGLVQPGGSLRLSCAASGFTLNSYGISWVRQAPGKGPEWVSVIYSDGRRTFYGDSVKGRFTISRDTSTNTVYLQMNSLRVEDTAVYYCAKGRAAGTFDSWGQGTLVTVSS
VL: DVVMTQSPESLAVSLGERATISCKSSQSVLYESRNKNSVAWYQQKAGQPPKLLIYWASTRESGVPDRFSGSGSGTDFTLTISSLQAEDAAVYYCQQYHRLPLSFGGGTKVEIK

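The starting antibody came from a phage panning campaign against this peptide. Designed CDR sequences, proposed from the first random library and measured here. Their group label is 14L_Ctrl (Ctrl: baseline library sampled from a position-specific scoring matrix, with some repeated check sequences). Affinity was read by AlphaSeq, a pooled yeast mating assay with surface-displayed partners. Pairs that bind mate more often; barcode pairs of the diploids are counted by sequencing. Each replicate has its own calibration line, from reference interactions of the BCL2 family. Mating was done six times.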

Variants are written as CDR1, CDR2 and CDR3 of the light chain (limits as in the source). Parent: KSSQSVLYESRNKNSVA, WASTRES, QQYHRLPLS.
Affinities are written as log10 Kd with Kd in nM; a lower number is a better binder.
"ND" marks a missing value. The strain was present, yet no cells mated with the target were sequenced in that replicate, which points to weak or no binding.
A sequence measured in both rounds can read differently, since the two assays cover different ranges.

CDR-L1	CDR-L2	CDR-L3	log10 Kd (nM) by replicate	signal with controls
KSSDSVLYESRGLNSVA	WASTRES	QQYHRLPLS	3.23 2.03 1.67 1.81 1.65 2.23	1 of 18 (2.59)
KSSQSVLYEFRNKNSVA	AASTRES	QQYHRLPLS	0.59 0.94 1.14 0.49 0.83 0.86	0 of 18
KSSQDVSYESQNKNSVA	WASTRES	QQYHRLPLS	1.10 0.55 0.45 0.51 0.56 1.22	2 of 18 (2.37)
KSSQSVLYESRNKNSVA	WASTREM	QQYHRLPLS	1.45 1.68 1.28 1.10 0.88 1.66	2 of 18 (2.47)
KSSQSVLYESRNKNSVA	WASTRES	QQAHRLPLS	ND ND ND ND ND ND	0 of 18
KISQSVLYESRNKNSVA	AASTRES	QQYHRLPLS	-0.03 -0.31 -0.40 -0.35 -0.35 -0.19	2 of 18 (4.56)
KSSQSVLYEDRNKRSVA	WASTRER	QQDHRLPLS	ND ND ND ND ND ND	0 of 18
KSSQDVLMESRNKNSVA	YASTRES	QQYHRLPLS	1.73 1.17 1.78 1.55 2.00 1.55	1 of 18 (1.53)
KISQSVLYESRDKNSVA	WASTREP	QQYHRLPLS	0.71 0.67 0.72 1.14 1.01 0.71	0 of 18
RSSQSVLYESRNKNSVA	SASTRES	QQYHQLPLY	1.04 1.11 0.88 0.69 0.87 1.13	1 of 18 (3.18)
KSSQSVKYESRNKNSVA	WAYTRES	QQYHRLPLS	ND ND ND ND ND ND	0 of 18
KSSQSVLQESRNKNSVA	NASTRES	QQYPRLPLS	1.17 1.47 0.45 1.84 0.66 0.73	0 of 18
KSSQSVFYDSSNMNSVA	WASTRED	QQYHRLPLS	1.61 1.49 1.34 1.37 1.42 0.97	1 of 18 (1.62)
KSSQSVLYESRNKNSVA	WASTRES	EQYHRLPLE	ND ND ND ND ND ND	1 of 18 (1.64)
KSSQSVLDESRNKNSVA	WASTRES	QQYHSLPLS	1.25 ND ND 1.61 ND ND	0 of 18
KMSQSVLYESKNKNNVA	WASTRES	QQYHRLPLS	-0.17 -0.27 -0.46 -0.21 -0.29 -0.08	0 of 18
MSSQSVLYESRNKNSVA	WASTRTS	QQYHRLPLS	2.83 2.08 2.27 1.12 2.10 2.06	0 of 18
KSSQSVLYESRNKNSIA	QASTRES	QQYGRLPLS	0.64 0.16 -0.11 0.85 2.77 1.13	0 of 18
KSSQSVLTESRDKNSVA	DASTRES	QQYHRLPLS	ND 0.75 0.39 0.08 -0.21 1.60	1 of 18 (1.73)
KSGQSVLYESRNKNSVA	WASTRES	QAYHRLPLS	ND ND ND ND ND ND	0 of 18
KDSWSVNYESMLKNSVA	WASTRES	QQYWREPLS	ND ND ND ND ND ND	0 of 18
KSSQSVLYCSRNKNSVA	WASTRES	QSYHRLPLD	ND ND 2.09 ND ND ND	0 of 18
KSSQSVLYESRNKASVA	WASTRES	QQYHYLPLS	ND 1.60 ND ND ND ND; ND ND ND ND ND ND; ND ND ND ND ND ND; ND ND ND 1.99 ND ND; ND 2.08 ND 2.62 ND ND	4 of 90 (2.38)
KSSQSMLYEIRNKNSVA	WASTRES	QQYHRLPLS	ND ND ND ND ND ND	0 of 18
KSSQSVLNESRNKNSVA	WASTRSS	QQYHRLPLS	ND 2.10 1.94 2.56 ND 1.87	1 of 18 (1.89)
KSSQSPLYESRNKNSVA	WASQRES	QQYHRLPLS	1.12 1.14 1.98 0.93 1.22 1.49	1 of 18 (1.72)
KSSQSYLYENRNKNSVA	WASTRCS	QQYHRFPLS	2.61 0.73 2.39 2.25 2.00 1.58	2 of 18 (2.30)
KSSQAVLYESMPNNSVA	WASTREN	QQYHRLPVS	ND ND ND ND ND ND	4 of 18 (2.46)
KSSQSVLYESENKNSVA	EASTREM	QQYHRWPLS	ND 1.67 2.10 2.06 2.45 2.55	1 of 18 (3.53)
HSSQSVVYESRNKNSVA	WASTRES	QQYHRLPLS	ND 2.40 1.49 ND 2.71 2.45	0 of 18
KSSQSDLLESRNKNSVA	YASTRES	QQYHRLPVS	ND ND 1.26 2.15 0.81 1.45	0 of 18
KSSQSVLPMSSNKNSVA	AASTRES	QFYHRLPLS	0.69 0.77 0.97 0.71 1.02 1.13	0 of 18
KSSQSNLYESRNKNSVA	RASTRNS	QQYHRLPLS	1.83 1.55 1.19 1.30 1.46 1.45	2 of 18 (2.65)
KSSQSVLIESRNKNSVA	AASTRES	FQYHRLPLS	1.67 1.42 1.58 0.99 0.63 1.41	1 of 18 (1.90)
KSTQSVLGESRNKNSVA	YASTRIS	QQYHRLPLS	2.05 1.70 1.37 1.78 1.87 1.31	0 of 18
KPSQSVLYEDRGKNSVA	WASTRES	QQYHRLPLS	ND ND ND ND ND ND	0 of 18
KSSQSVLYESRYKNSVA	WASERES	QQYFRLPLS	2.47 1.72 1.82 ND 1.48 1.97	0 of 18
KSSQSVLYESRNKNSVA	KASERES	QQYHRLPLS	0.77 0.48 0.59 0.55 0.44 0.27	0 of 18
KSSQSVLYEERNKNSVA	WASTRES	QQYHRLPLS	1.77 1.75 1.83 2.89 2.17 2.35	0 of 18

The authors' rule: three or more of the six replicates give a measured affinity, fewer mean a poor binder.
The parent sequence was in this pool as ten entries: three were never detected, three once, and four in most replicates, with averages from 0.34 to 2.37.
Some sequences occur more than once in the pool; their replicates are listed entry by entry, parted by semicolons.
Three control strains display no target. For all light chain designs, 4% of the pairings with them gave a signal, with a median of 2.64 and one signal in twenty below 1.59, so weak values seen in few replicates may be background. The control count says in how many pairings with the empty strains this scFv gave a signal, with their mean in brackets.